Chains of the proteins cited; added tags and fusions are not shown. Residues count along the entry.
UniProt P12931, whole entry: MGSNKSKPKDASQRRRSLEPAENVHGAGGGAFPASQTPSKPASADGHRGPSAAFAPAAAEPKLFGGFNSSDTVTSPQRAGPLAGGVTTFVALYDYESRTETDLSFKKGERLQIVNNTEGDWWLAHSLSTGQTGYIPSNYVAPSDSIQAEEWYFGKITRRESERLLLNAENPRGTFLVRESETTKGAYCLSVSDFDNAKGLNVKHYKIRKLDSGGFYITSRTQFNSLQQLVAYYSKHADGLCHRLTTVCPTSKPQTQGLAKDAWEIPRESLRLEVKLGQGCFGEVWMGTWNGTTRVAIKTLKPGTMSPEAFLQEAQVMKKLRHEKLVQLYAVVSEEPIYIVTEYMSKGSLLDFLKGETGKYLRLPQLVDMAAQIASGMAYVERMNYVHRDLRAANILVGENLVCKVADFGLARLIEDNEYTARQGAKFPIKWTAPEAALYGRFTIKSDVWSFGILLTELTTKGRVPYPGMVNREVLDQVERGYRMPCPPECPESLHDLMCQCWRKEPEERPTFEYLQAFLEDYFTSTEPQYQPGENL
UniProt P06239, whole entry: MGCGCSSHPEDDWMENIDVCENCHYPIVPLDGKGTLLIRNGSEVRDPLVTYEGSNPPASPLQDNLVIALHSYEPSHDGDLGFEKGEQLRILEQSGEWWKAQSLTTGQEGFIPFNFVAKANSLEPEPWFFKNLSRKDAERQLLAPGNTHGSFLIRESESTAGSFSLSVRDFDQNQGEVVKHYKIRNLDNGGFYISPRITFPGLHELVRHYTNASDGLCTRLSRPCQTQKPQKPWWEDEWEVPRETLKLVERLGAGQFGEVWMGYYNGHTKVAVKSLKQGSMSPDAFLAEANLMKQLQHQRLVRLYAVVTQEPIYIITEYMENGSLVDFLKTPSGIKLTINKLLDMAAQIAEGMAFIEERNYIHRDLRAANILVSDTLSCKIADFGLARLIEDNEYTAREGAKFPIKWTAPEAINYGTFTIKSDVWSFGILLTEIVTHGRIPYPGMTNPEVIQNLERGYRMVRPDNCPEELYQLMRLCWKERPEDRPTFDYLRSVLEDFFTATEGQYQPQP
UniProt P53779, 40-402 limits assumed: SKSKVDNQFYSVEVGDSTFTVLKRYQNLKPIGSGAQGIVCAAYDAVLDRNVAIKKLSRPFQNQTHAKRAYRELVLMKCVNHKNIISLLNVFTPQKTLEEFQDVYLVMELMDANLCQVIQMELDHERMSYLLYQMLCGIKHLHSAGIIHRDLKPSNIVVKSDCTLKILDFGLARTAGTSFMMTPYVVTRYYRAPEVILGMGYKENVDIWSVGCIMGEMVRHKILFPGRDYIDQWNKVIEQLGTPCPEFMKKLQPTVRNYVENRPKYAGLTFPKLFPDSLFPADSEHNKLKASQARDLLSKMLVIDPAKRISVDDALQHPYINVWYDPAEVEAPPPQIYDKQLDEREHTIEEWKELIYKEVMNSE

In patent publication US6642227B2, “Inhibitors of c-Jun N-terminal kinases (JNK) and other protein kinases” (Vertex Pharmaceuticals Incorporated, priority 2001, dated 2003):

Legend:
human Src kinase = human Src kinase (Homo sapiens, UniProt P12931); test: Src inhibition assay (A: radioactivity-based or B: spectrophotometric coupled-enzyme assay); conditions: assay A or B not specified; for Ki: read-out: Src Activity (Ki class A-C)
Method: The compounds were evaluated as inhibitors of human Src kinase using either a radioactivity-based assay or spectrophotometric assay.
The compounds were assayed as inhibitors of full length recombinant human Src kinase (from Upstate Biotechnology, cat. no. 14-117) expressed and purified from baculo viral cells. Src kinase activity was monitored by following the incorporation of ^33p from ATP into the tyrosine of a random poly Glu-Tyr polymer substrate of composition, Glu:Tyr=4:1 (Sigma, cat. no. P-0275). The following were the final concentrations of the assay components: 0.05 M HEPES, pH 7.6, 10 mM MgCl2, 2 mM DTT, 0.25 mg/ml BSA, 10 μM ATP (1-2 uCi ^33P-ATP per reaction), 5 mg/ml poly Glu-Tyr, and 1-2 units of recombinant human Src kinase. In a typical assay, all the reaction components with the exception of ATP were pre-mixed and aliquoted into assay plate wells.
Inhibitors dissolved in DMSO were added to the wells to give a final DMSO concentration of 2.5%. The assay plate was incubated at 30° C. for 10 min before initiating the reaction with ^33P-ATP. After 20 min of reaction, the reactions were quenched with 150 μl of 10% trichloroacetic acid (TCA) containing 20 mM Na3PO4. The quenched samples were then transferred to a 96-well filter plate (Whatman, UNI-Filter GF/F Glass Fiber Filter, cat no. 7700-3310) installed on a filter plate vacuum manifold. Filter plates were washed four times with 10% TCA containing 20 mM Na3PO4 and then 4 times with methanol. 200 μl of scintillation fluid was then added to each well. The plates were sealed and the amount of radioactivity associated with the filters was quantified on a TopCount scintillation counter. The radioactivity incorporated was plotted as a function of the inhibitor concentration. The data was fitted to a competitive inhibition kinetics model to get the Ki for the compound.
(§1) The ADP produced from ATP by the human recombinant Src kinase-catalyzed phosphorylation of poly Glu-Tyr substrate was quanitified using a coupled enzyme assay (Fox et al (1998) Protein Sci 7, 2249). In this assay one molecule of NADH is oxidised to NAD for every molecule of ADP produced in the kinase reaction. The disappearance of NADH can be conveniently followed at 340 nm.
(§2) The following were the final concentrations of the assay components: 0.025 M HEPES, pH 7.6, 10 mM MgCl2, 2 mM DTT, 0.25 mg/ml poly Glu-Tyr, and 25 nM of recombinant human Src kinase. Final concentrations of the components of the coupled enzyme system were 2.5 mM phosphoenolpyruvate, 200 μM NADH, 30 μg/ml pyruvate kinase and 10 μg/ml lactate dehydrogenase.
(§3) In a typical assay, all the reaction components with the exception of ATP were pre-mixed and aliquoted into assay plate wells. Inhibitors dissolved in DMSO were added to the wells to give a final DMSO concentration of 2.5%. The assay plate was incubated at 30 C. for 10 min before initiating the reaction with 100 μM ATP. The absorbance change at 340 nm with time, the rate of the reaction, was monitored on a molecular devices plate reader. The data of rate as a function of the inhibitor concentration was fitted to compettive inhibition kinetics model to get the Ki for the compound.

human Lck kinase = human Lck kinase (UniProt P06239); test: Lck inhibition assay (A: radioactivity-based or B: spectrophotometric coupled-enzyme assay); conditions: read-out: Lck Activity (Ki rating)
Method: The compounds were evaluated as inhibitors of human Lck kinase using either a radioactivity-based assay or spectrophotometric assay.
The compounds were assayed as inhibitors of full length bovine thymus Lck kinase (from Upstate Biotechnology, cat. no. 14-106) expressed and purified from baculo viral cells. Lck kinase activity was monitored by following the incorporation of ^33p from ATP into the tyrosine of a random poly Glu-Tyr polymer substrate of composition, Glu:Tyr=4:1 (Sigma, cat. no. P-0275). The following were the final concentrations of the assay components: 0.025 M HEPES, pH 7.6, 10 mM MgCl2, 2 mM DTT, 0.25 mg/ml BSA, 10 μM ATP (1-2 μCi ^33P-ATP per reaction), 5 mg/ml poly Glu-Tyr, and 1-2 units of recombinant human […] kinase. In a typical assay, all the reaction components with the exception of ATP were pre-mixed and aliquoted into assay plate wells. Inhibitors dissolved in DMSO were added to the wells to give a final DMSO concentration of 2.5%. The assay plate was incubated at 30 C. for 10 min before initiating the reaction with ^33P-ATP. After 20 min of reaction, the reactions were quenched with 150 μl of 10% trichloroacetic acid (TCA) containing 20 mM Na3PO4. The quenched samples were then transferred to a 96-well filter plate (Whatman, UNI-Filter GF/F Glass Fiber Filter, cat no. 7700-3310) installed on a filter plate vacuum manifold. Filter plates were washed four times with 10% TCA containing 20 mM Na3PO4 and then 4 times with methanol. 200 μl of scintillation fluid was then added to each well. The plates were sealed and the amount of radioactivity associated with the filters was quantified on a TopCount scintillation counter. The radioactivity incorporated was plotted as a function of the inhibitor concentration. The data was fitted to a competitive inhibition kinetics model to get the Ki for the compound.
as §1, with “Lck” for “Src”
as §2, with “DTT, 5” for “DTT, 0.25”, “and 50” for “and 25”, “human Lck” for “human Src”
as §3, with “30°” for “30”, “150” for “100”, “competitive” for “compettive”

activated JNK3 = activated JNK3 (Homo sapiens, UniProt P53779); test: JNK inhibition assay (spectrophotometric coupled-enzyme assay); type: biochemical; conditions: read-out: JNK3 Activity (Ki class A-C); activated JNK3 10 nM, 10 μM ATP, 30° C.
Description: A BLAST search of the EST database using the published JNK3α1 cDNA as a query identified an EST clone (#632588) that contained the entire coding sequence for human JNK3α1. Polymerase chain reactions (PCR) using pfu polymerase (Strategene) were used to introduce restriction sites into the cDNA for cloning into the pET-15B expression vector at the NcoI and BamHI sites. The protein was expressed in E. coli. Due to the poor solubility of the expressed full-length protein (Met 1-Gln 422), an N-terminally truncated protein starting at Ser residue at position 40 (Ser 40) was produced. This truncation corresponds to Ser 2 of JNK1 and JNK2 proteins, and is preceded by a methionine (initiation) and a glycine residue. The glycine residue was added in order to introduce an NcoI site for cloning into the expression vector. In addition, systematic C-terminal truncations were performed by PCR to identify a construct that give rise to diffraction-quality crystals. One such construct encodes amino acid residues Ser40-Glu402 of JNK3α1 and is preceded by Met and Gly residues.
The construct was prepared by PCR using deoxyoligonucleotides: 5′ […] 3′ (forward primer with initiation codon underlined)(SEQ ID NO:1) and 5′ […] 3′ (reverse primer with stop codon underlined)(SEQ ID NO:2) as primers and was confirmed by DNA sequencing. […]

| SMILES | Ki (human Src kinase) | Ki (human Lck kinase) | Ki (activated JNK3) | Src Activity (percent inhibition class D-F) (human Src kinase; inhibitor concentration not given) |
| --- | --- | --- | --- | --- |
| CCOc1cccc(-c2cccc(-c3c(-c4ccnc(Nc5cccc(O)c5)n4)sc(SC)c3C#N)c2)c1 | 100 to 1000 nM | 100 to 1000 nM |  |  |
| CSc1sc(-c2ccnc(Nc3cccc(OCc4ccccc4)c3)n2)c(-c2cccc(Br)c2)c1C#N | < 100 nM | < 100 nM |  |  |
| CSc1sc(-c2nc(Nc3cccc(OCc4ccccc4)c3)ncc2C)c(-c2ccccc2)c1C#N | < 100 nM | < 100 nM |  |  |
| Cc1cnc(Nc2cccc(O)c2)nc1-c1sc(N(C)C)c(C#N)c1-c1cccc(Oc2ccccc2)c1 | < 100 nM | < 100 nM |  |  |
| Cc1cnc(Nc2cccc([N+](=O)[O-])c2)nc1-c1sc(N(C)C)c(C#N)c1-c1cccc(Oc2ccccc2)c1 | < 100 nM | < 100 nM |  |  |
| CSc1sc(-c2ccnc(Nc3cccc(O)c3)n2)c(-c2cccc(-c3cccc(N)c3)c2)c1C#N | < 100 nM | < 100 nM |  |  |
| CSc1sc(-c2nc(Nc3cccc(OCc4ccccc4)c3)ncc2C)c(-c2cccnc2)c1C#N | < 100 nM | < 100 nM |  |  |
| CSc1sc(-c2nc(Nc3cccc(S(N)(=O)=O)c3)ncc2C)c(-c2ccccc2)c1C#N | < 100 nM | < 100 nM |  |  |
| CCS(=O)(=O)Nc1cccc(Nc2nccc(-c3sc(SC)c(C#N)c3-c3cccnc3)n2)c1 | < 100 nM | < 100 nM |  |  |
| COc1cccc(-c2c(-c3ccnc(Nc4cccc(N)c4)n3)sc(SC)c2C#N)c1 | < 100 nM | < 100 nM |  |  |
| CSc1sc(-c2ccnc(Nc3cccc(O)c3)n2)c(-c2cccc(-c3ccc(F)c(Cl)c3)c2)c1C#N | 100 to 1000 nM | > 1000 nM |  |  |
| CSc1sc(-c2ccnc(Nc3cccc(O)c3)n2)c(-c2cccc(-c3cccc(O)c3)c2)c1C#N | < 100 nM | < 100 nM |  |  |
| CSc1sc(-c2ccnc(Nc3cccc(O)c3)n2)c(-c2cccc(Br)c2)c1C#N | < 100 nM | < 100 nM |  |  |
| CSc1sc(-c2ccnc(Nc3cccc(O)c3)n2)c(-c2cccc(-c3cccnc3)c2)c1C#N | 100 to 1000 nM | 100 to 1000 nM |  |  |
| CCOc1sc(-c2ccnc(Nc3ccccc3)n2)c(-c2ccc(C(F)(F)F)cc2)c1C#N |  |  | 100 to 1000 nM | F (compounds having an activity designated as “F” provided a provided a percent inhibition of between 67% and 100%) |
| CSc1sc(-c2ccnc(Nc3cccc(NS(C)(=O)=O)c3)n2)c(-c2cccnc2)c1C#N | 100 to 1000 nM | 100 to 1000 nM |  |  |
| COc1cccc(-c2c(-c3ccnc(Nc4cccc([N+](=O)[O-])c4)n3)sc(SC)c2C#N)c1 | 100 to 1000 nM | 100 to 1000 nM |  |  |
| CSc1sc(-c2ccnc(Nc3cccc(O)c3)n2)c(-c2cccc(-c3ccc(C(C)C)cc3)c2)c1C#N [IIa-87] | 100 to 1000 nM | < 100 nM |  |  |
